Experimental data as given in patent US20130123253A1, “MODULATORS OF CENTRAL NERVOUS SYSTEM NEUROTRANSMITTERS” (HUMAN BIOMOLECULAR RESEARCH INSTITUTE, priority 2004, published 2013).
Several values for one entry are separate records, joined by “and”; a condition that tells them apart may be missing. Identical values can stand only once. Like-named read-outs stand apart in the source and are kept apart here.

Chains of the proteins cited; added tags and fusions are not shown.
UniProt P31645, whole entry: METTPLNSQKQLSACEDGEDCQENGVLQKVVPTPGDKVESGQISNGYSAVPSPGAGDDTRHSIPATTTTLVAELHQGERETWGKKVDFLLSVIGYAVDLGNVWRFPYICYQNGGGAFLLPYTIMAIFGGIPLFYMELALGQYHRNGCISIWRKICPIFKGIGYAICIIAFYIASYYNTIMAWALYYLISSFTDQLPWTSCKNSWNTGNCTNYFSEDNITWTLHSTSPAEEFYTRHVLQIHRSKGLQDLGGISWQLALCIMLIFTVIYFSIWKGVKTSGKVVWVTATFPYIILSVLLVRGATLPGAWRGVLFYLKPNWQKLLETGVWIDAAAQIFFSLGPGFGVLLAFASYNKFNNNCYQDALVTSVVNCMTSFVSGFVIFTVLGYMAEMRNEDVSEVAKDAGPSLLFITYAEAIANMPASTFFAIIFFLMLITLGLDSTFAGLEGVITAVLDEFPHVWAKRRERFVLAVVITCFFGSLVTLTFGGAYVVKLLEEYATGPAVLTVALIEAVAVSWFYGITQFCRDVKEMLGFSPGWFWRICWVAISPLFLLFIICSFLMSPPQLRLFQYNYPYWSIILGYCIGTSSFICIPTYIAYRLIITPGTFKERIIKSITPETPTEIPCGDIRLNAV

Tests used:
[1] = molecular target: T1, human serotonin transporter (hSERT) (Homo sapiens, UniProt P31645); assay: cell-based
[2] = molecular target: T1, human serotonin transporter (hSERT); assay: Inhibition of [125I]RTI-55 binding in HEK-hSERT cell membranes
[3] = molecular target: T1, human serotonin transporter (hSERT)
[4] = Reuptake (Kr, nM) hSERT, Table 1
[5] = Binding (Ki, nM) hSERT, Table 1
[6] = read-out: hSERT binding Ki, text of Example 28
[7] = read-out: hSERT reuptake IC50, text of Example 28
[8] = read-out: Reuptake (IC50, nM) hSERT
[9] = read-out: Reuptake (IC50, nM) hSERT, Table 9, mean ± SEM
[10] = Reuptake (kup, nM) hSERT, Table 2
[11] = Binding (ki, nM) hSERT, Table 2

Compound: NCC1CCC(CCc2c(F)c(F)c(F)c(F)c2F)O1 (stereo not shown) [2-(aminomethyl)-5-(pentafluoro-phenethyl) tetrahydrofuran]
- Ki [1, 4]: 225 nM
- Ki ([2]; read-out: Binding (Ki, nM) hSERT, Table 1): 2130 nM

Compound: NCC1CCC(C2CCCCC2)O1 (stereo not shown) [2-(aminomethyl)-5-cyclohexyl tetrahydrofuran]
- Ki [1, 4]: 939 nM
- Ki [2, 5]: > 10000 nM

Compound: COc1ccc(F)cc1CCC1CCC(CN)O1 (stereo not shown) [2-aminomethyl-5-(2′-methoxy-5′-fluorophenethyltetrahydrofuran]
- Ki ([1]; Reuptake (Kr, nM) hSERT): 1.64 nM
- Ki ([2]; Binding (Ki, nM) hSERT): 609 nM

Compound: NCC1CCC(c2ccccc2)O1 (stereo not shown) [Compound 15b, 2-Aminomethyl-5-phenyltetrahydrofuran]
- IC50 ([3]; read-out: hSERT reuptake IC50): 1710 nM
- Ki ([2]; read-out: hSERT binding Ki): 43 nM

Compound: NCC1CCC(c2ccc3ccccc3c2)O1 (stereo not shown) [Compound 15c, 2-(Aminomethyl)-5-(2′-naphthyl)tetrahydrofuran]
- IC50 [1]: 4.1 nM
- Ki [2, 6]: 45 nM

Compound: NCC1CCC(CCc2ccccc2)O1 (stereo not shown) [Compound 15d, 2-(Aminomethyl)-5-phenethyltetrahydrofuran]
- IC50 [3, 7]: 129 nM
- Ki [2, 6]: 68 nM

Compound: NCC1CCC(c2cccc3ccccc23)O1 (stereo not shown) [Compound 15e, 2-(Aminomethyl)-5-(1′-naphthyl)tetrahydrofuran]
- IC50 [3, 8]: 24 ± 1.2 nM

Compound: NCC1CCC(c2ccc(Cl)cc2)O1 (stereo not shown) [Compound 15f]
- IC50 ([3]; read-out: hSERT reuptake IC50): 31.9 nM
- Ki ([2]; read-out: hSERT binding Ki): 1100 nM

Compound: NCC1CCC(c2ccc(Br)cc2)O1 (stereo not shown) [Compound 15g]
- IC50 ([3]; read-out: hSERT reuptake IC50): 50.3 nM
- Ki ([2]; read-out: hSERT binding Ki): 1110 nM

Compound: NCC1CCC(CCc2c(F)c(F)c(F)c(F)c2F)O1 (stereo not shown) [Compound 15h, 2-Aminomethyl-5-pentafluorophenethyltetrahydrofuran]
- IC50 [3, 7]: 225 nM
- Ki [2, 6]: 2130 nM

Compound: COc1ccc(C2CCC(CN)O2)cc1 (stereo not shown) [Compound 15j, 2-Aminomethyl-5-(p-methoxyphenyl)tetrahydrofuran]
- IC50 [3, 9]: 617 ± 150 nM
- IC50 [3, 7]: 617 nM
- Ki [2, 6]: 6880 nM

Compound: CC(C)(C)c1ccc(C2CCC(CN)O2)cc1 (stereo not shown) [Compound 15k, 2-Aminomethyl-5-(p-t-butylphenyl)tetrahydrofuran]
- IC50 [3, 9]: 636 ± 191 nM
- IC50 [3, 7]: 636 nM

Compound: Cc1cc(CCC2CCC(CCN)O2)ccc1F (stereo not shown) [Compound 17c, 2-Aminoethyl-5-(4′-fluoro-3′-methylphenethyl)tetrahydrofuran]
- IC50 [3, 7]: 30 nM
- Ki [2, 6]: 688 nM

Compound: NCCC1CCC(Cc2ccccc2)O1 (stereo not shown) [Compound 17d, 2-(2′-aminoethyl)-5-benzyltetrahydrofuran]
- IC50 [3, 8]: 2260 ± 203 nM
- Ki ([2]; read-out: Binding (Ki, nM) hSERT): 3820 ± 882 nM
- Ki ([2]; read-out: hSERT binding Ki): 3820 nM

Compound: NCCC1CCC(CCc2ccc(O)cc2)O1 (stereo not shown) [Compound 17e, 2-Aminoethyl-5-(4′-hydroxyphenethyl)tetrahydrofuran]
- IC50 [3, 7]: 4040 nM
- Ki [2, 6]: 7480 nM

Compound: NCCC1CCC(CCc2ccccc2)O1 (stereo not shown) [MM-II-41]
- Ki [1, 4]: 161 nM and 1590 nM
- Ki [2, 5]: 1300 nM and 2730 nM

Compound: COc1ccc(F)cc1C1CCC(CCNCCC2CCC(c3cc(F)ccc3OC)O2)O1 (stereo not drawn) [N,N-bis (cis-5′-(2″- methoxy-5″-fluoro-phenyl-2′-tetrahydro-furyl)ethyl) Amine]
- Ki [1, 10]: 306 nM
- Ki [2, 11]: 150 nM

Compound: c1ccc2cc(C3CCC(CCNCCC4CCC(c5ccc6ccccc6c5)O4)O3)ccc2c1 (stereo not shown) [N,N-bis(5′-(2″- naphthyl-2′-tetrahydro-furyl)ethyl) Amine]
- Ki [1, 10]: 3360 nM
- Ki [2, 11]: 252 nM

Compound: c1cncc(CCC2CCC(CCNCCC3CCC(CCc4cccnc4)O3)O2)c1 (stereo not shown) [N,N-bis(5′-(3″- pyridyl-ethyl)-2′-tetra-hydro-furylethyl) amine]
- Ki [1, 10]: 1790 nM
- Ki [2, 11]: 886 nM

Compound: Cc1cc(CCC2CCC(CCNCCC3CCC(CCc4ccc(F)c(C)c4)O3)O2)ccc1F (stereo not shown) [N,N-bis(5′-(p-fluoro-m-methyl-phenethyl)-2′-tetra-hydro-furylethyl) amine]
- Ki [1, 10]: 2380 nM
- Ki [2, 11]: 743 nM

Compound: c1ccc(CC2CCC(CCNCCC3CCC(Cc4ccccc4)O3)O2)cc1 (stereo not shown) [N,N-bis(5′-benzyl-2′-tetrahydro-furyl)-2-ethyl) amine]
- Ki [1, 10]: 2260 nM
- Ki [2, 11]: 937 nM

Compound: CN(CCC1CCC(CCc2ccccc2)O1)CCC1CCC(CCc2ccccc2)O1 (stereo not shown) [N,N-bis(5′-phenethyl-2′-tetra-hydro-furylethyl) methyl-amine]
- Ki [1, 10]: 3690 nM
- Ki [2, 11]: 730 nM

Compound: c1ccc(CCC2CCC(CCNCCC3CCC(CCc4ccccc4)O3)O2)cc1 (stereo not shown) [N,N-bis(5′-phenethyl-2′-tetrahydro-furyl-ethyl) Amine]
- Ki [1, 10]: 3470 nM
- Ki [2, 11]: 87 nM and 660 nM

Compound: c1ccc(C2CCC(CCNCCC3CCC(c4ccccc4)O3)O2)cc1 (stereo not shown) [N,N-bis(5′-phenyl-2′-tetrahydro-furyl-ethyl) amine]
- Ki [1, 10]: 2020 nM
- Ki [2, 11]: 1090 nM
